This assay has as its system Mus musculus. Description: Narcotic agonist activity in sc dosed albino mouse assessed as protection against acetylcholine-induced writhing administered 20 mins prior to acetylcholine challenge measured for 2 mins. Type of assay: functional.

Values joined by “and” are separate entries in the source; they are usually repeats but may differ in a detail not shown here. Equal values may be shown once.

On to `CC(C)(C)C(C)(O)CC[C@]1(C)[C@H]2Cc3ccc(O)cc3[C@@]1(C)CCN2CC1CC1.CS(=O)(=O)O` (stereo partly specified), for which the median effective dose (ED50) (as a rule, the dose at which the effect has come halfway, by size or by number of responders) is 8.9 mg/kg and > 25 mg/kg.
